Tests used:
Y1R = Y1R (Homo sapiens, UniProt P25929); assay: FLIPR assay, Y1R; assay type: cell-based; details: read-out: Y1R EC50(nM) FLIPR
Protocol: (§1) Loading Buffer (Calcium-3 Assay Kit, Molecular Devices) was prepared by dissolving the contents of one vial (Express Kit) into 1000 ml Hank's Balanced Salt Solution containing 20 mM HEPES and 5 mM probenecid.
(§2) During the incubation, test compounds were prepared at 3.5× the desired concentration in HBSS (20 mM HEPES)/0.05% BSA/1% DMSO and transferred to a 384 well plate for use on FLIPR.
(§3) After incubation, both the cell and compound plates were brought to the FLIPR and 20 μL of the diluted compounds were transferred to the cell plates by the FLIPR. During the assay, fluorescence readings were taken simultaneously from all 384 wells of the cell plate every 1.5 seconds. Five readings were taken to establish a stable baseline, and then 20 μL of sample was rapidly (30 μL/sec) and simultaneously added to each well of the cell plate. The fluorescence was continuously monitored before, during and after sample addition for a total elapsed time of 100 seconds. Responses (increase in peak fluorescence) in each well following addition was determined. The initial fluorescence reading from each well, prior to ligand stimulation, was used as a zero baseline value for the data from that well. The responses are expressed as % of maximal response of the positive control.

By UniProt entry, the sequences of proteins in these tests, tags left out. Where a name states a change or a piece, a line headed by the entry shows the natural chain unless it says otherwise.
UniProt P25929, whole entry: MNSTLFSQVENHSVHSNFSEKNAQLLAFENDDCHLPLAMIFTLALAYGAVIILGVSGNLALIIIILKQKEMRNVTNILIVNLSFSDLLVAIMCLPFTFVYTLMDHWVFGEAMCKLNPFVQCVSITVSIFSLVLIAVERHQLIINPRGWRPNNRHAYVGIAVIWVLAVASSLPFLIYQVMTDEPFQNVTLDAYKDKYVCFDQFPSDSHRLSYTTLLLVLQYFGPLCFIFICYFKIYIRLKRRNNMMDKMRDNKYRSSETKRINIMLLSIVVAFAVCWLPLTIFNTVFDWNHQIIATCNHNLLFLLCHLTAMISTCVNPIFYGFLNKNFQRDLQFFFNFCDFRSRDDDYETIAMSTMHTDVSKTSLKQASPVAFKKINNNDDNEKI
UniProt P50391: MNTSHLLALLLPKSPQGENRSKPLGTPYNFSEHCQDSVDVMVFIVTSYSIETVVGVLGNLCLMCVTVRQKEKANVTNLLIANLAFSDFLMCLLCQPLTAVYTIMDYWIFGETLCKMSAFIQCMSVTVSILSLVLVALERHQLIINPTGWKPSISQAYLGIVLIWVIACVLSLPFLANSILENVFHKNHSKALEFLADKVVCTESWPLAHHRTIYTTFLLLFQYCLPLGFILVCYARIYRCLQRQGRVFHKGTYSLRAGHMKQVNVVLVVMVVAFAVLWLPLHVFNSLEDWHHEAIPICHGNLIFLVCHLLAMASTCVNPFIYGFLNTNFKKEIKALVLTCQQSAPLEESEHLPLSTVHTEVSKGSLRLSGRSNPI

Y4R = Y4R (Homo sapiens, UniProt P50391); assay: FLIPR assay, Y4R; assay type: cell-based; details: read-out: Y4R EC50(nM) FLIPR
Protocol: as §1, §2, §3

Substance: Ac-2,2-Aic-Nle-Pqa-Arg-His-Tyr-Leu-Asn-Leu-Val-Thr-Arg-Gln-Arg-Tyr-NH2 [Example 69]
- EC50 (Y1R): > 5000 nM
- EC50 (Y4R): > 5000 nM

Substance: Ac-Ach-Nle-Pqa-Arg-His-Tyr-Leu-Asn-Leu-Val-Thr-Arg-Gln-Arg-Tyr-NH2 [Example 70]
- EC50 (Y1R): > 5000 nM
- EC50 (Y4R): > 5000 nM

Substance: Ac-Acp-Nle-Pqa-Arg-His-Tyr-Leu-Asn-Leu-Val-Thr-Arg-Gln-Arg-Tyr-NH2 [Example 71]
- EC50 (Y1R): > 5000 nM
- EC50 (Y4R): > 5000 nM

Substance: Ac-Aib-Nle-Pqa-Arg-His-Tyr-Leu-Asn-Leu-Val-Thr-Arg-Gln-Arg-Tyr-NH2 [Example 66]
- EC50 (Y4R): > 5000 nM

Substance: Ac-Ile-Ala-Pqa-Arg-His-Tyr-Leu-Asn-Leu-Val-Thr-Arg-Gln-Arg-Tyr-NH2 [Example 17]
- EC50 (Y1R): > 5000 nM
- EC50 (Y4R): 3020 nM

Substance: Ac-Ile-Nle-Pqa-(2,3,4,5,6 Penta fluoro Phe)-His Tyr-Leu-Asn-Leu-Val-Thr-Arg-Gln-Arg-Tyr-NH2 [Example 65]
- EC50 (Y1R): > 5000 nM
- EC50 (Y4R): > 5000 nM

Substance: Ac-Ile-Nle-Pqa-Arg-His-(2)Nal-Leu-Asn-Leu-Val-Thr-Arg-Gln-Arg-Tyr-NH2 [Example 58]
- EC50 (Y1R): 870 nM
- EC50 (Y4R): > 5000 nM

Substance: Ac-Ile-Nle-Pqa-Arg-His-(2,3,4,5,6 Penta fluoroPhe)-Leu-Asn-Leu-Val-Thr-Arg-Gln-Arg-Tyr-NH2 [Example 60]
- EC50 (Y4R): > 5000 nM

Substance: Ac-Ile-Nle-Pqa-Arg-His-(3,4,5trifluorPhe)-Leu-Asn-Leu-Val-Thr-Arg-Gln-Arg-Tyr-NH2 [Example 59]
- EC50 (Y4R): > 5000 nM

Substance: Ac-Ile-Nle-Pqa-Arg-His-Bip-Leu-Asn-Leu-Val-Thr-Arg-Gln-Arg-Tyr-NH2 [Example 55]
- EC50 (Y4R): > 5000 nM

Substance: Ac-Ile-Nle-Pqa-Arg-His-Dip-Leu-Asn-Leu-Val-Thr-Arg-Gln-Arg-Tyr-NH2 [Example 56]
- EC50 (Y4R): > 5000 nM

Substance: Ac-Ile-Nle-Pqa-Phe-His-Tyr-Leu-Asn-Leu-Val-Thr-Arg-Gln-Arg-Tyr-NH2 [Example 45]
- EC50 (Y1R): > 5000 nM
- EC50 (Y4R): > 5000 nM

Substance: Cyclo Lys28-Asp32 Ac-Ile-Nle-Pqa-Arg-His-Tyr-Lys-Asn-Leu-Val-Asp-Arg-Gln-Arg-Tyr-NH2 [Example 50]
- EC50 (Y1R): > 5000 nM
- EC50 (Y4R): > 5000 nM

Substance: H-Ile-Lys-Pqa-Ala-His-Trp-Leu-Asn-Leu-Val-Thr-Arg-Gln-Arg-Tyr-NH2 [Example 47]
- EC50 (Y4R): > 5000 nM

Substance: H-Ile-Lys-Pqa-Arg-(NMe)His-Tyr-Leu-Asn-Leu-Val-Thr-Arg-Gln-Arg-Tyr-NH2 [Example 39]
- EC50 (Y1R): 3800 nM
- EC50 (Y4R): > 5000 nM

Substance: H-Ile-Lys-Pqa-Arg-His-Ala-Leu-Asn-Leu-Val-Thr-Arg-Gln-Arg-Tyr-NH2 [Example 13]
- EC50 (Y1R): > 5000 nM
- EC50 (Y4R): > 5000 nM

Substance: H-Ile-Lys-Pqa-Arg-His-Trp-Leu-Asn-Leu-Val-Thr-Arg-Gln-Arg-Tyr-NH2 [Example 46]
- EC50 (Y4R): > 5000 nM

Substance: H-Ile-Lys-Pqa-Arg-His-Tyr-(NMe)Leu-Asn-Leu-Val-Thr-Arg-Gln-Arg-Tyr-NH2 [Example 37]
- EC50 (Y1R): > 5000 nM
- EC50 (Y4R): > 5000 nM

Substance: H-Ile-Lys-Pqa-Arg-His-Tyr-Ala-Asn-Leu-Val-Thr-Arg-Gln-Arg-Tyr-NH2 [Example 12]
- EC50 (Y1R): > 5000 nM
- EC50 (Y4R): > 5000 nM

Substance: H-Ile-Lys-Pqa-Arg-His-Tyr-Leu-Ala-Leu-Val-Thr-Arg-Gln-Arg-Tyr-NH2 [Example 11]
- EC50 (Y1R): > 5000 nM
- EC50 (Y4R): > 5000 nM

Substance: H-Ile-Lys-Pqa-Arg-His-Tyr-Leu-Asn-Leu-Val-Ala-Arg-Gln-Arg-Tyr-NH2 [Example 8]
- EC50 (Y1R): > 5000 nM
- EC50 (Y4R): > 5000 nM

Substance: H-Ile-Lys-Pqa-Arg-His-Tyr-Leu-Asn-Leu-Val-Thr-(NMe)Arg-Gln-Arg-Tyr-NH2 [Example 33]
- EC50 (Y1R): > 5000 nM
- EC50 (Y4R): > 5000 nM

Source: patent US7410949B2, “Neuropeptide-2 receptor (Y-2R) agonists and uses thereof” (Hoffmann-La Roche Inc., priority 2005, dated 2008)
